# Measured values published in patent US9522139B2, “Fructose 1, 6-biphosphatases as new targets for diagnosing and treating breast cancer brain metastasis” (The University of Houston System, priority 2011, dated 2016).
# Tested on: MDA-MB-231Br3 cells
# Experiment: Cell survival assay (trypan blue uptake) in glucose-free medium
# Assay type: cell-based
# Conditions: EGCG-treated cells, FIG. 2E
substance,measurement,value
α-ketoglutarate [α-KG],rescue of brain metastatic cells from GLUD inhibition by supplementation,completely rescues
